In the assay the target is PIM 2 (Homo sapiens, UniProt Q9P1W9). Put plainly: PIM kinase biochemical profile (Ki).

By UniProt entry, the sequences of proteins in these tests, tags left out.
UniProt Q9P1W9, whole entry, species assumed: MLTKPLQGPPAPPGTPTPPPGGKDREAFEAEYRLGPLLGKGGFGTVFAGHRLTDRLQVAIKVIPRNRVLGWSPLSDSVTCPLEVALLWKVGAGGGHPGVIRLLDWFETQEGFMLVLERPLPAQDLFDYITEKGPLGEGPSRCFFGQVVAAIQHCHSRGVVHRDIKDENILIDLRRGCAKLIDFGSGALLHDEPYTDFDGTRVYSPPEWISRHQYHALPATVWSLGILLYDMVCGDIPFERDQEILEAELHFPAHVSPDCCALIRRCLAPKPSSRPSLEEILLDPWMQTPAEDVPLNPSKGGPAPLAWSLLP

Each structure is given as a SMILES string.

The results in this text go back to patent publication US20250082634A1, “PIM KINASE INHIBITORS FOR TREATMENT OF MYELOPROLIFERATIVE NEOPLASMS AND FIBROSIS ASSOCIATED WITH CANCER” (Sumitomo Pharma America, Inc., priority 2018, published 2025).

By Ki is commonly meant the dissociation constant of the complex between target and ligand, obtained from inhibition or displacement. A high value points to weaker binding. As to `CN1CCC(CNc2ccc3ncc(-c4cccc(OC(F)(F)F)c4)n3n2)CC1` [Compound A, reference compound], the Ki was 980 nM.
